Data published in PubChem BioAssay AID686979 (National Center for Advancing Translational Sciences (NCATS), 2013).
Only a part is listed here, and it is no random draw. Inconclusive results are not listed. Activity calls are given as the source filed them. Calls follow the shape of the dose curve; as a rule, active = well fitted inhibition curve with a large enough effect; inconclusive = small, poorly fitted or top-dose-only effect; inactive = flat fitted curve, though single readings scatter.

Assay: qHTS for Inhibitors of human tyrosyl-DNA phosphodiesterase 1 (TDP1): qHTS in cells in presence of CPT; also: nearly all actives have a fitted effect of over 55% in size
Details: chicken DT40 Tdp1-/-;hTDP1 cells + 20 nM CPT, ATP luminescence, 48 h; at 46.2 µM (top of the series)
% is scaled to controls: 0 for no effect and ±100 for the full control effect.

Row | SMILES | activity change, negative = growth inhibition
1 | CN(C)C(=O)OCCc1n(C)cc[n+]1C | inactive: -13.7%
